Each structure is given as a SMILES string.

Sequences of proteins named here, by UniProt entry; tags and fusion partners are left off.
UniProt P29089, whole entry: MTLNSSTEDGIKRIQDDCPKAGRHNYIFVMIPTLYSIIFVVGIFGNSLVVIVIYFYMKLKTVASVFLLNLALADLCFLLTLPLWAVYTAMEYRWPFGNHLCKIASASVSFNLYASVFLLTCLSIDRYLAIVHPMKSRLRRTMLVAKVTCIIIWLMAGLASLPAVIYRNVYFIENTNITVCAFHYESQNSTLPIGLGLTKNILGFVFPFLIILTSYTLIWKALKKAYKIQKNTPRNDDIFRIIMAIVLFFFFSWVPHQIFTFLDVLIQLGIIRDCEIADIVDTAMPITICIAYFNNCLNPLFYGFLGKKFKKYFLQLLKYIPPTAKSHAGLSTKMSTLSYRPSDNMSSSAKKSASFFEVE

The term IC50 denotes the point on the concentration scale where inhibition reaches its midpoint. Low readings indicate higher potency, high ones lower potency.

The assay concerns the target Type-1 angiotensin II receptor B (Rattus norvegicus, UniProt P29089). Put plainly: Inhibition of [125I]angiotensin II receptor specific binding to rat mesenteric arteries.

With `CCCCc1nc(Cl)c(CC(=O)O)n1Cc1ccccc1Cl`, the concentration for half-maximal inhibition (IC50) was determined as 43 µM.

Values taken from ChEMBL document CHEMBL1125320, “Imidazole-5-acrylic acids: potent nonpeptide angiotensin II receptor antagonists designed using a novel peptide pharmacophore model” (J Med Chem, 1992).
